Literature values, collected in US12351592B2 (UNIVERSIDAD SANTIAGO DE CALI, priority 2019, dated 2025).

Conditions: in vivo

CN(C)C(=N)N=C(N)N [Metformin]
binding to plasmatic proteins: not bound to plasmatic proteins
